Tested on: C57BL/6 mice
Assay: Veno-occlusive disease (VOD/SOS) blinded histological score in C57BL/6 mice

Nc1nc2nc[nH]c2c(=S)[nH]1 [Formulation 6-TG, 2-amino-6,7-dihydro-3H-purine-6-thione]
VOD score (C57BL/6 mice, 1 mg/kg body weight by gavage each day for 14 days): led to a VOD effect
VOD score (C57BL/6 mice, 2.5 mg/kg body weight by gavage each day for 14 days): led to a VOD effect
VOD score (divided dose 1.25 mg/kg twice daily oral gavage, 11 days, compared with single bolus 2.5 mg/kg): significantly less VOD score

— patent US20130005749A1, “NOVEL FORMULATION AND TREATMENT METHODS” (The University of Queensland, priority 2011, published 2013)
